{"source": "paper PMC11350787", "about": "“Antimicrobial Properties and Cytotoxicity of LL-37-Derived Synthetic Peptides to Treat Orthopedic Infections” (Antibiotics, 2024)", "test_system": "red blood cells (RBC)", "experiment": "Hemolytic activity assessment", "assay_type": "cell-based", "conditions": "2.3-300 µg/mL tested; cut off ≤1%; human RBC, 1 h 37 °C", "protocol": "The pellet containing erythrocytes was washed 3 times in PBS centrifuging at 700× g for 8 min at RT. Finally, 40 µL of pellet containing red blood cells (RBC) was diluted in 8 mL of PBS, obtaining a 0.5% v/v RBC suspension.\nThe 96-well V plate was incubated at 37 °C for 1 h, then centrifuged at 1000× g for 10 min, and the supernatant (60 µL) was transferred to a 96-well flat bottom microplate for the absorption analysis on a microplate reader at 414 nm. The positive control (PC, 100% hemolysis) consisted of 0.1% Triton-X100 in PBS (pH 7.4), while PBS alone served as the negative control (NC, 0% hemolysis). Each hemolysis activity assessment test was carried out in two replicates and repeated three times.\nNCs and PCs were averaged, then results were normalized to the average of PC and NC according to the following formula: % Hemolysis = (Abs treated − Abs NC/Abs PC − Abs NC) × 100. The hemolytic activity was also tested on TFA to exclude any toxicity caused by the buffer.", "note": "Where a name gives a salt, the structure may show the parent alone."}
{"smiles": "O=C(O)C(F)(F)F", "note": "[Na-TFA, Trifluoroacetic acid, reference compound]", "values": [{"measurement": "Hemolytic activity (in words)", "value": "No hemolytic activity"}]}
